Measurements from ChEMBL document CHEMBL3632592, “Identification of Highly Promising Antioxidants/Neuroprotectants Based on Nucleoside 5'-Phosphorothioate Scaffold. Synthesis, Activity, and Mechanisms of Action” (J Med Chem, 2015).

Assay: Potency index, ratio of EDTA IC50 to compound IC50 for inhibition of Fe2+-induced DMPO-OH adduct formation from H2O2

SMILES	Ratio IC50
Nc1ncnc2c1ncn2[C@@H]1O[C@H](COP(=O)(S)OP(=O)(O)O)[C@@H](O)[C@H]1O (stereo in doubt; 6B)	2.5
Nc1ncnc2c1ncn2[C@@H]1O[C@H](COP(=O)(O)OP(=O)(O)S)[C@@H](O)[C@H]1O (stereo partly specified)	2.5
CSc1nc(N)c2ncn([C@@H]3O[C@H](COP(=O)(S)OP(=O)(O)O)[C@@H](O)[C@H]3O)c2n1 (stereo in doubt; 7A)	2.5
Nc1nc(Cl)nc2c1ncn2[C@@H]1O[C@H](COP(=O)(O)OP(=O)(O)S)[C@@H](O)[C@H]1O (stereo partly specified)	2.5
Nc1nc(Cl)nc2c1ncn2[C@@H]1O[C@H](COP(=O)(S)OP(=O)(O)O)[C@@H](O)[C@H]1O (stereo in doubt; 8A)	2.5
Nc1nc(Cl)nc2c1ncn2[C@@H]1O[C@H](COP(=O)(S)OP(=O)(O)OP(=O)(O)O)[C@@H](O)[C@H]1O (stereo in doubt; 9B)	2.5
CSc1nc(N)c2ncn([C@@H]3O[C@H](COP(=O)(S)OP(=O)(O)O)[C@@H](O)[C@H]3O)c2n1 (stereo in doubt; 7B)	2.5
Nc1ncnc2c1ncn2[C@@H]1O[C@H](COP(=O)(S)OP(=O)(O)O)[C@@H](O)[C@H]1O (stereo in doubt; 6A)	2.5
Nc1nc(Cl)nc2c1ncn2[C@@H]1O[C@H](COP(=O)(S)OP(=O)(O)O)[C@@H](O)[C@H]1O (stereo in doubt; 8B)	2.5
CSc1nc(N)c2ncn([C@@H]3O[C@H](COP(=O)(O)OP(=O)(O)S)[C@@H](O)[C@H]3O)c2n1 (stereo partly specified)	2.5
Nc1nc(Cl)nc2c1ncn2[C@@H]1O[C@H](COP(=O)(S)OP(=O)(O)OP(=O)(O)O)[C@@H](O)[C@H]1O (stereo in doubt; 9A)	2.5
